Blood plasma ratio data for one compound are collected here from ChEMBL document CHEMBL5108065, “Discovery and Characterization of Potent, Efficacious, Orally Available Antimalarial Plasmepsin X Inhibitors and Preclinical Safety Assessment of UCB7362” (J Med Chem, 2022).

The nature of data set [1]: in vitro. Particulars: human, whole blood.
Data set [2] can be described thus: in vitro. Conditions: mouse, whole blood.
Data set [3] can be described thus: in vitro. Particulars: rat, whole blood.
The nature of data set [4]: in vitro. Particulars: dog, whole blood.

Molecules are shown by their SMILES.

For `C[C@H]1C[C@@H](N2C(=N)N[C@](C)(c3cccc(NC(=O)c4cccc(C#N)c4)c3Cl)CC2=O)CCO1`, the blood plasma ratio in data set [1] was 0.97; in data set [2] it was 1.2; in data set [3] it was 1.16; in data set [4], 1.18.
